Antibody variant affinities, Ab-14 heavy chain, assay B

Values reported by Li et al. 2023, doi:10.1038/s41467-023-39022-2 (FLAb copy).

The target is the same throughout: PDVDLGDISGINAS, from the HR2 region of SARS-CoV-2 spike.

Ab-14 is the parent antibody, in scFv form: VH, then the linker GGGGSGGGGSGGGGS, then VL. The light chain is unchanged in all variants.
VH: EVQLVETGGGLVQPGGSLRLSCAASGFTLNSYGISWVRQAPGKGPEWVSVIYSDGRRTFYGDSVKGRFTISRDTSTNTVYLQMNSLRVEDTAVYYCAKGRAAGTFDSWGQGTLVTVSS
VL: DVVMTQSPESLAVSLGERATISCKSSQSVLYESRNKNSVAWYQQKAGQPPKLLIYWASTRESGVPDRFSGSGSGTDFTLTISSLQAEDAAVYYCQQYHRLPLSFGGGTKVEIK

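These sequences belong to a second round, designed from the earlier measurements on random variants of the parent. Group labels follow the data file (Ctrl: baseline library sampled from a position-specific scoring matrix, with some repeated check sequences; Rand: our label for a block that the file lists under HC and that is probably the random mutants of the ten best first-round binders; En: ensemble of fine-tuned language models; GP: Gaussian process model; GPLM: also part of the Gaussian process libraries; HC: hill climbing; Gen: genetic algorithm; Gibbs: Gibbs sampling; a sequence that several methods proposed may carry one label only). In AlphaSeq, yeast of one mating type display the scFv and yeast of the other type display the target. Mating (16 h, 30 °C) was followed by selection of diploids and sequencing of their barcodes. Read counts were normalised to the haploid input and turned into Kd by a linear fit to BCL2-family pairs of known affinity, for each replicate. There are six technical replicates.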

Each variant is given by its three heavy chain CDRs, as the data file delimits them; those of the parent are GFTLNSYGIS, VIYSDGRRTFYGDSVK, GRAAGTFDS. The Kd shown is the geometric mean over detected replicates; a lower Kd is a better binder. "not detected" marks a missing value. The strain was present, yet no cells mated with the target were sequenced in any replicate, which points to weak or no binding. Empty control strains, which show no peptide, gave a signal in 1% of pairings with all heavy chain designs; the median was 120 nM and 95% of these signals were weaker than 7.0 nM. No background was subtracted. Also given: how often the same scFv was detected with the empty control strains. In the paper, a design with two or fewer of six values counts as a poor binder. Some sequences occur more than once in the pool; their replicates are pooled. A sequence measured in both rounds can read differently, since the two assays cover different ranges. Of ten entries with the parent sequence, four were seen in most replicates (averages 2.2 nM to 240 nM), three in one and three in none, so single entries are noisy.

| # | apparent Kd | detected | signal with controls | CDR-H1 | CDR-H2 | CDR-H3 | group |
|---|---|---|---|---|---|---|---|
| 1 | not detected | 0/6 | 0/18 | GFTLNSYGES | VIYSDGRRTFYGDSVK | GRVAGTFDS | Ctrl |
| 2 | not detected | 0/6 | 0/18 | GFDLGEYGIS | VIYADGQRVSYQDAVK | GQSSVYYLA | En_Gibbs |
| 3 | 200 pM | 6/6 | 0/18 | GFDLNEYGIS | VIYADGKRTAYAESVK | GENAGTFDV | En_Gen |
| 4 | 250 pM | 6/6 | 1/18 | GFDLNEYGIS | VIYADGKRTFYADDVK | GENAGTFDV | En_Gen |
| 5 | 4.4 nM | 6/6 | 0/18 | GFTLDSYGIS | VIYSDGRRTAYGDSVK | GIAAGTFDS | Ctrl |
| 6 | 75 pM | 6/6 | 0/18 | GFDLNEYGIS | VIYADGRRTFYTDSVK | GNIAGTFDV | En_HC |
| 7 | 2.2 nM | 6/6 | 0/18 | GFDLNEYGIS | VIYADGMRTAYADDVK | GENAGTFDI | En_Gen |
| 8 | not detected | 0/6 | 0/18 | GFTLNSYGIS | VIYSDGRRTFYGDRVK | GQTAGTFDV | GP_Gibbs |
| 9 | 29 nM | 3/6 | 0/18 | GFTLKSYGIS | VIYSDGRRTFYSDSVK | GRAAGTFDS | GP_HC |
| 10 | 540 pM | 6/6 | 0/18 | GFDLNEYGIS | VIYADGMRTSYADSVK | GENAGTFDL | En_Gen |
| 11 | 60 µM | 1/6 | 0/18 | GFTLNSYGIS | VIYSDGRRTFYGDSVK | GRYKGTFDS | Ctrl |
| 12 | 1.6 µM | 1/6 | 1/18 | GFTLNSYGIS | VIYSDGRRTFYGDSVK | GRKAGKFKW | Ctrl |
| 13 | 15 nM | 6/6 | 0/18 | GFTLNEYGIS | VIYSDGRRTFYTDSVK | GFFAGTFDS | Rand |
| 14 | 7.1 nM | 6/6 | 0/18 | MFSLNSYGIS | VIYADGRRTFYGDSVK | GNAAGTFDS | GP_Gibbs |
| 15 | 120 pM | 6/6 | 0/18 | GFDLNEYGIS | VIYADGRRTAYVDNVK | GNVAGTFDV | En_Gen |
| 16 | 1.5 nM | 12/12 | 1/36 | GFSLNSYGIS | VIYSDGRRTAYGDSVK | GRAAGTFDS | Ctrl+GPLM_Gen |
| 17 | 6.5 nM | 6/6 | 1/18 | GFTLNSYGIS | VIYADGRRTFYGDRVK | GRAAGTFDV | GP_Gibbs |
| 18 | 270 pM | 6/6 | 1/18 | GFDLNEYGIS | VIYADGVRTFYADSVK | GNQAGTFDL | En_HC |
| 19 | 1.7 nM | 6/6 | 1/18 | GFELNSYGIS | VIYSDGKRTFYADSVK | GRQAGTFDS | GPLM_Gibbs |
| 20 | 640 pM | 6/6 | 1/18 | GFDLNEYGIS | VIYADGRRTFYADSVK | GNTAGTFLI | En_HC |
| 21 | 40 nM | 4/6 | 0/18 | GITLNQYGIS | VIYSDGRRTGYDDSVK | GRAAGTFDS | Ctrl |
| 22 | not detected | 0/6 | 0/18 | GFTLNDYGIS | VIYSDGRRTFYGDSVK | GRAIVTFDS | Ctrl |
| 23 | not detected | 0/6 | 1/18 | GFQLNDYGIS | VIYSDGRRTFYGDSVK | GRSAGTFIS | GP_HC |
| 24 | 3.3 nM | 6/6 | 1/18 | GFDLNSYGIS | VIYSDGRRTFYHDSVK | GEAAGTFDS | GPLM_Gen |
| 25 | 310 pM | 6/6 | 0/18 | GFDLESYGIS | VIYADGSRTAYADSVK | GNVAGTFDQ | En_HC |
| 26 | 400 nM | 1/6 | 0/18 | GNNLDEYGIS | VIYADGQRTYYAQDVK | GKTGDNAFI | En_Gibbs |
| 27 | 54 nM | 5/6 | 0/18 | GFWLNDYGIS | VIYSDGRRTFYGDSVK | GTAAGTFDS | GP_HC |
| 28 | 3.5 µM | 1/6 | 1/18 | GFDLEKYGIS | VIYADGRRSVYADNVK | GMDGATNGF | En_Gibbs |
| 29 | 270 pM | 6/6 | 1/18 | GFDLNSYGIS | VIYSDGRRTFYSDSVK | GKEAGTFDS | GP_Gen |
| 30 | 2.9 nM | 6/6 | 0/18 | GFDLEDYGIS | VIYADGKRTAYADSVK | GNQAGTFDV | En_Gen |
| 31 | 3.6 nM | 6/6 | 0/18 | GFSLNAYGIS | VIYSDGRRTFYGDQVK | GKTAGTFDS | GP_Gibbs |
| 32 | 860 pM | 6/6 | 1/18 | GFTLNEYGIS | VIYSDGRRTFYSDDVK | GRTAGTFDS | GP_HC |
| 33 | 1.2 nM | 6/6 | 0/18 | GFNLNSYGIS | VIYSDGRRTFYLDSVK | GNVAGTFDS | GP_Gibbs |
| 34 | 270 pM | 6/6 | 1/18 | GFDLNEYGIS | VIYADGKRTFYTDSVK | GQLAGTFDV | En_HC |
| 35 | not detected | 0/6 | 0/18 | GFDLNEYGIS | VIYADGKRYHYQDSVK | GGVVGSVLY | En_Gibbs |
| 36 | not detected | 0/6 | 0/18 | GFTLNSYGIS | VIYSDGRRTFYGDSVK | GRAAGTWDS | Ctrl |
| 37 | not detected | 0/6 | 1/18 | GFKLDEYGIS | VIYADGVRAHYKDSVK | GVHQFNVVM | En_Gibbs |
| 38 | not detected | 0/6 | 0/18 | GFTLNEYGIH | VIYSDGRRTAYGDSVK | GRAAGTFHS | Ctrl |
| 39 | 4.1 nM | 6/6 | 0/18 | GFELNEYGIS | VIYSDGRRTFYGDDVK | GRAAGTFDS | Ctrl |
| 40 | 550 pM | 6/6 | 0/18 | GFTLNQYGIS | VIYSDGRRTFYSDSVK | GQTAGTFDS | GP_HC |
| 41 | not detected | 0/6 | 0/18 | GFTLNMYGIS | VIYSDGRRTFYGDSVK | GAAAGTFKS | Ctrl |
| 42 | 73 pM | 6/6 | 0/18 | GFDLDEYGIS | VIYADGMRTAYADSVK | GNVAGTFDM | En_Gen |
| 43 | not detected | 0/6 | 1/18 | GFQLNEYGIS | VIYADGRRTFYGDSVK | GRAAGTFIS | GP_HC |
| 44 | not detected | 0/6 | 0/18 | GNDLQEYGIS | VIYADGMRNQYTQSVK | GMNAGVFDY | En_Gibbs |
| 45 | not detected | 0/6 | 1/18 | GFDLNSYGYS | VIYSDGRRTFYGDSVE | GGAAGTFDS | Ctrl |

Excerpt, the final 8 entries:

{"CDR-H1": "GFTLNEYGIH", "CDR-H2": "VIYSDGRRTAYGDSVK", "CDR-H3": "GRAAGTFHS", "group": "Ctrl", "apparent Kd": "not detected", "detected": "0/6", "signal with controls": "0/18"}
{"CDR-H1": "GFELNEYGIS", "CDR-H2": "VIYSDGRRTFYGDDVK", "CDR-H3": "GRAAGTFDS", "group": "Ctrl", "apparent Kd": "4.1 nM", "detected": "6/6", "signal with controls": "0/18"}
{"CDR-H1": "GFTLNQYGIS", "CDR-H2": "VIYSDGRRTFYSDSVK", "CDR-H3": "GQTAGTFDS", "group": "GP_HC", "apparent Kd": "550 pM", "detected": "6/6", "signal with controls": "0/18"}
{"CDR-H1": "GFTLNMYGIS", "CDR-H2": "VIYSDGRRTFYGDSVK", "CDR-H3": "GAAAGTFKS", "group": "Ctrl", "apparent Kd": "not detected", "detected": "0/6", "signal with controls": "0/18"}
{"CDR-H1": "GFDLDEYGIS", "CDR-H2": "VIYADGMRTAYADSVK", "CDR-H3": "GNVAGTFDM", "group": "En_Gen", "apparent Kd": "73 pM", "detected": "6/6", "signal with controls": "0/18"}
{"CDR-H1": "GFQLNEYGIS", "CDR-H2": "VIYADGRRTFYGDSVK", "CDR-H3": "GRAAGTFIS", "group": "GP_HC", "apparent Kd": "not detected", "detected": "0/6", "signal with controls": "1/18"}
{"CDR-H1": "GNDLQEYGIS", "CDR-H2": "VIYADGMRNQYTQSVK", "CDR-H3": "GMNAGVFDY", "group": "En_Gibbs", "apparent Kd": "not detected", "detected": "0/6", "signal with controls": "0/18"}
{"CDR-H1": "GFDLNSYGYS", "CDR-H2": "VIYSDGRRTFYGDSVE", "CDR-H3": "GGAAGTFDS", "group": "Ctrl", "apparent Kd": "not detected", "detected": "0/6", "signal with controls": "1/18"}